# Measurements as given in patent US11370781B2, “Combination therapy for treating cancer” (Epizyme, Inc., priority 2012, dated 2022).
# Read-outs that look alike come from different tables or passages of the source.
# Test system: SUDHL10 human lymphoma cells
# Conditions: 28 days
# Description: The animals were fed ad libitum water (reverse osmosis 1 ppm Cl) and NIH 31 Modified and Irradiated Lab Diet® consisting of 18.0% crude protein, 5.0% crude fat, and 5.0% crude fiber. The mice were housed on irradiated Enrich-o'cobs™ bedding in static microisolators on a 12-hour light cycle at 20-22° C. (68-72° F.) and 40-60% humidity. All procedures comply with the recommendations of the Guide for Care and Use of Laboratory Animals with respect to restraint, husbandry, surgical procedures, feed and fluid regulation, and veterinary care.
# Human lymphoma cell lines were harvested during mid-log phase growth, and resuspended in PBS with 50% Matrigel™ (BD Biosciences). Each mouse received 1×10^7 cells (0.2 mL cell suspension) subcutaneously in the right flank. […] Tumor size, in mm^3, was calculated from: […]
# Mice were treated at compound doses ranging from 75-600 mg/kg and at TID (3 times a day every 8 h), BID (twice a day every 12 h) or QD (once a day) schedules for various amount of days by oral gavage or injections via the intravenous, intraperitoneal or subcutaneous routes. Each dose was delivered in a volume of 0.2 mL/20 g mouse (10 mL/kg), and adjusted for the last recorded weight of individual animals. […]
# Treatment efficacy was determined on the last treatment day. MTV(n), the median tumor volume for the number of animals, n, evaluable on the last day, was determined for each group. […]
structure (smiles),measurement,setting,value
"CCN(c1cc(-c2ccc(CN3CCOCC3)cc2)cc(C(=O)NCc2c(C)cc(C)[nH]c2=O)c1C)C1CCOCC1 [Compound 44, N-((4,6-dimethyl-2-oxo-1,2-dihydropyridin-3-yl)methyl)-5-(ethyl (tetrahydro-2H-pyran-4-yl)amino)-4-methyl-4′-(morpholinomethyl)-[1,1′-biphenyl]-3-carboxamide]",% TGI from day 1,Compound 44 250 mg/kg BID,101%
same,% TGI from day 1,Compound 44 500 mg/kg BID,104%
